Binding of CDR-mutated scFvs to a peptide of the spike HR2 region

From the AlphaSeq antibody data of Engelhart et al. 2022 (doi:10.1038/s41597-022-01779-4), copy in the FLAb collection.

Binding partner: SARS-CoV-2 spike HR2 peptide, sequence PDVDLGDISGINAS.

The variants keep the light chain, the linker and the frameworks of Ab-14 (scFv order VH, three GGGGS repeats, VL).
VH: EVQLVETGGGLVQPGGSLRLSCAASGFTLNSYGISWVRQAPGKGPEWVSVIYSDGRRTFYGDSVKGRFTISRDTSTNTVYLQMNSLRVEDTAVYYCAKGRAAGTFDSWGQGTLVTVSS
VL: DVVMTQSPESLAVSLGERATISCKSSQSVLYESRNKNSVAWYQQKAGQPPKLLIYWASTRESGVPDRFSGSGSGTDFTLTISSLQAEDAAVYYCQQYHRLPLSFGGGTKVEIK

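The parent was found by panning a naive human phage display library on the peptide. In library AAYL49, one, two or three CDR residues were substituted; doubles and triples were drawn at random. Affinity was read by AlphaSeq, a pooled yeast mating assay with surface-displayed partners. Pairs that bind mate more often; barcode pairs of the diploids are counted by sequencing. Scores were corrected for input abundance and mapped to Kd with protein pairs of known affinity run in the same pool. Mating was done three times.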

Substitutions are numbered in sequence along the VH above, starting at 1 (not Kabat). This list gathers variants with a substitution at S53 (VH, numbered from residue 1). Kd is apparent (estimated from mating counts) and averaged on the log scale over replicates with a signal. Smaller is tighter. Where no diploid with the target was found in any replicate, the entry reads "no signal": below detection, most likely a poor binder, though not proof of it. Order: sorted from the lowest average up, undetected variants last. In this assay the parent's reference entry averaged 4.4 nM; its copy inside this library read 13 µM (one replicate of three).

changes	Kd	replicates with signal
F27W+S53A+D106N	200 nM	3 of 3
T28E+S53T+G99P	280 nM	2 of 3
F27E+N30P+S53Y	630 nM	3 of 3
N30R+V50W+S53V	850 nM	1 of 3
S31C+S53P+A101N	1.4 µM	3 of 3
S35P+S53F+R100T	2.3 µM	1 of 3
S53E+F59C+T104P	3.4 µM	2 of 3
Y32F+S53Q+S63P	4.0 µM	1 of 3
N30Y+S53H+G99C	4.2 µM	3 of 3
I51A+S53Y+A102E	5.9 µM	1 of 3
Y52G+S53Q	6.2 µM	1 of 3
Y52E+S53P+F105H	7.9 µM	1 of 3
S53P+D62P+R100P	12 µM	1 of 3
S53L+Y60K	14 µM	2 of 3
S53N+F59P+Y60T	19 µM	2 of 3
G33Y+Y52T+S53G	20 µM	2 of 3
I34Q+S53V+F105T	21 µM	3 of 3
S53E+K65M+T104S	22 µM	2 of 3
G26Y+S53P	25 µM	3 of 3
S53I+R100P+A101C	29 µM	1 of 3
G33P+S53P+D62K	34 µM	1 of 3
S53C+G103N+T104S	42 µM	2 of 3
S53I+Y60L	45 µM	1 of 3
I34H+I51W+S53P	50 µM	2 of 3
T28N+S53D+Y60N	56 µM	2 of 3
G26F+S35R+S53F	89 µM	1 of 3
T28M+S53Q+G103M	97 µM	2 of 3
S53T+T58S+D62L	98 µM	1 of 3
Y32C+I51V+S53Y	110 µM	2 of 3
N30A+S53R	140 µM	2 of 3
S53T+G99Y	140 µM	3 of 3
S53M+D54F	170 µM	1 of 3
S53N+R56A+R100A	220 µM	1 of 3
S53G+F59L	240 µM	3 of 3
N30A+S35K+S53F	300 µM	1 of 3
S53H+D54T+S107N	310 µM	1 of 3
S53H+R56P	320 µM	1 of 3
V50K+S53K	360 µM	2 of 3
S53G+D54H+G99C	750 µM	1 of 3
G26T+Y32R+S53I	1.3 mM	1 of 3
S53A+Y60G+V64C	no signal	0 of 3
S53G+R100I+A102P	no signal	0 of 3
S53L+D62F	no signal	0 of 3
Y32P+S53C+G99Y	no signal	0 of 3
Y32W+I34H+S53Y	no signal	0 of 3
G33T+S53Y+D106P	no signal	0 of 3
S53V+Y60H+D62C	no signal	0 of 3
I34Q+I51N+S53G	no signal	0 of 3
S53G+T104A+F105P	no signal	0 of 3
I34W+S53C+D62I	no signal	0 of 3
S53V+G61F+V64I	no signal	0 of 3
S53Q+Y60K+G103D	no signal	0 of 3
S53N+T58L+V64W	no signal	0 of 3
S53Q+T58N+G103M	no signal	0 of 3
V50A+S53A+G99E	no signal	0 of 3
I34G+S53T+D54C	no signal	0 of 3
I34T+S53I+S63W	no signal	0 of 3
S53F+V64R+G103R	no signal	0 of 3
Y52T+S53L+F59Y	no signal	0 of 3
I51E+S53E	no signal	0 of 3
S53G+A101V+A102K	no signal	0 of 3
Y52M+S53Q+R100I	no signal	0 of 3
Y52G+S53C+G99F	no signal	0 of 3
S53L+Y60M	no signal	0 of 3
G33W+S53W+R100T	no signal	0 of 3
S53M+G55Y+G99N	no signal	0 of 3
S53W+T104M	no signal	0 of 3
L29S+S53P+T58C	no signal	0 of 3
S53Q+D62F+A101W	no signal	0 of 3
F27W+S53T+G55K	no signal	0 of 3
G26W+S53H+F105Q	no signal	0 of 3
S53Q+F59C+R100Q	no signal	0 of 3
S53N+R57I+T58G	no signal	0 of 3
L29D+S53D+T104K	no signal	0 of 3
S53A+F105E	no signal	0 of 3

Again, the first 10 entries without any signal:

changes,Kd,replicates with signal
S53A+Y60G+V64C,no signal,0 of 3
S53G+R100I+A102P,no signal,0 of 3
S53L+D62F,no signal,0 of 3
Y32P+S53C+G99Y,no signal,0 of 3
Y32W+I34H+S53Y,no signal,0 of 3
G33T+S53Y+D106P,no signal,0 of 3
S53V+Y60H+D62C,no signal,0 of 3
I34Q+I51N+S53G,no signal,0 of 3
S53G+T104A+F105P,no signal,0 of 3
I34W+S53C+D62I,no signal,0 of 3

Nonspecific signal, from three strains lacking the peptide, appeared in 15% of pairings of library AAYL49, centred on 11 µM (5% of these signals below 680 nM); values are not corrected for it.